From patent publication US11292791B2 (priority 2017, dated 2022)
Where two headings read alike, the source gives them in different places.

Columns and labels:
[1] = biological target: T1, BRD4 (Homo sapiens (Human), UniProt O60885); conditions: read-out: BRD4 IC50 (μM gmean)
[2] = biological target: T1, BRD4; assay: biochemical; conditions: BRD4 IC50 (μM gmean)

Row | SMILES | IC50 [1] [µM] | IC50 [2] [µM]
1 | COC(=O)N1c2ccc3c(nc(Cc4ccc(OC(F)F)c(F)c4)n3C3CCC(C(=O)O)CC3)c2CC[C@@H]1C (stereo partly drawn) [Example 408] | 1 to 1000 | 
2 | COC(=O)N1c2ccc3c(nc(C(C)Cn4cc(Cl)cn4)n3C3CCCNCC3)c2CC[C@@H]1C (stereo partly drawn) [Example 938] | 1 to 1000 | 
3 | COC(=O)N1c2ccc3c(nc([C@@H](C)Oc4ccccc4)n3[C@H]3CC[C@H](C(=O)O)CC3)c2CC[C@@H]1C [Example 529] | 1 to 1000 | 
4 | COC(=O)N1c2ccc3c(nc(C(C)Cn4cc(Cl)cn4)n3C3CCCNCC3)c2CC[C@@H]1C (stereo partly drawn) [Example 842] | 1 to 1000 | 
5 | COC(=O)N1c2ccc3c(nc(C(C)OC4CCCCC4)n3C3CCCC(C(=O)O)C3)c2CC[C@@H]1C (stereo partly drawn) [Example 531] | 0.1 to 1 | 
6 | COC(=O)N1c2ccc3c(nc(C(O)c4cc(F)cc5cc[nH]c45)n3C3CCCC(C(=O)O)C3)c2CC[C@@H]1C (stereo partly drawn) [Example 448] | 0.1 to 1 | 
7 | COC(=O)N1c2ccc3c(nc(C(C)C(O)c4ccccc4)n3C3CCCC(C(=O)O)C3)c2CC[C@@H]1C (stereo partly drawn) [Example 545] | 0.1 to 1 | 
8 | COC(=O)N1c2ccc3c(nc(C(C)Cn4cc(Cl)cn4)n3C3CC4(CCNC4)C3)c2CC[C@@H]1C (stereo partly drawn) [Example 959] | 1 to 1000 | 
9 | COC(=O)N1c2ccc3c(nc(C(O)c4cc(F)ccc4C(F)F)n3C3CCCC(C(=O)O)C3)c2CC[C@@H]1C (stereo partly drawn) [Example 564] | 1 to 1000 | 
10 | COC(=O)N1c2ccc3c(nc(C(C)CN4CCCCC4=O)n3C3CCCC(C(=O)O)C3)c2CC[C@@H]1C (stereo partly drawn) [Example 929] | 1 to 1000 | 
11 | COC(=O)N1c2ccc3c(nc(CCc4ccccc4)n3[C@H]3CC[C@@H](C(N)=O)CC3)c2CC[C@@H]1C [Example 77] | 1 to 1000 | 
12 | COC(=O)N1c2ccc3c(nc(C(O)c4ccc(OC)c(Cl)c4)n3C3CCCC(C(=O)O)C3)c2CC[C@@H]1C (stereo partly drawn) [Example 437] | 0.1 to 1 | 
13 | COC(=O)N1c2ccc3c(nc([C@H](C)Cn4cc(Cl)cn4)n3C3CCC4(CC3)CNC4)c2CC[C@@H]1C [Example 936] | 1 to 1000 | 
14 | COC(=O)N1c2ccc3c(nc(C(O)c4cc(F)ccc4OC4CC4)n3C3CCCC(C(=O)O)C3)c2CC[C@@H]1C (stereo partly drawn) [Example 678] | 0.1 to 1 | 
15 | COC(=O)N1c2ccc3c(nc(C(Cc4ccccc4)NC(C)=O)n3C3CCC(C(=O)O)CC3)c2CC[C@@H]1C (stereo partly drawn) [Example 517] |  | 0.1 to 1
16 | COC(=O)N1c2ccc3c(nc(C(C)Cn4cc(Cl)cn4)n3C3CC4(CCNCC4)C3)c2CC[C@@H]1C (stereo partly drawn) [Example 746] |  | 0.1 to 1
17 | COC(=O)N1c2ccc3c(nc(OCCCc4ccccc4)n3[C@H]3CC[C@H](C(=O)O)CC3)c2CC[C@@H]1C [Example 767] |  | 0.1 to 1
18 | COC(=O)N1c2ccc3c(nc(Cc4ccc(Cl)c(OC)n4)n3[C@@H]3CCC[C@@H](C(=O)O)C3)c2CC[C@@H]1C [Example 410] |  | 0.1 to 1
19 | COC(=O)N1c2ccc3c(nc(CCC4CCCCC4)n3[C@@H]3CCC[C@@H](C(=O)O)C3)c2CC[C@@H]1C [Example 547] |  | 0.1 to 1
20 | COC(=O)N1c2ccc3c(nc(CC4CCCCO4)n3C3CCCC(C(=O)O)C3)c2CC[C@@H]1C (stereo partly drawn) [Example 635] |  | 0.1 to 1
21 | COC(=O)N1c2ccc3c(nc(N(C)c4ccc(Cl)cc4)n3[C@@H]3CCC[C@@H](C(=O)O)C3)c2CC[C@@H]1C [Example 592] |  | 0.1 to 1
22 | COC(=O)N1c2ccc3c(nc(Nc4cc(C(C)(C)C)[nH]n4)n3[C@H]3CC[C@H](C(=O)O)CC3)c2CC[C@@H]1C [Example 796] |  | 0.1 to 1
23 | COC(=O)N1c2ccc3c(nc(C(OC)c4ccccc4)n3C3CCCC(C(=O)O)C3)c2CC[C@@H]1C (stereo partly drawn) [Example 473] |  | 0.1 to 1
24 | COC(=O)N1c2ccc3c(nc(C(C)Cc4ccccc4)n3C3CCC4(CC3)CNC4)c2CC[C@@H]1C (stereo partly drawn) [Example 576] |  | 0.1 to 1
25 | COC(=O)N1c2ccc3c(nc(Cc4ccc(OC(C)C)c(F)c4)n3[C@H]3CC[C@H](C(=O)O)CC3)c2CC[C@@H]1C [Example 412] |  | 0.1 to 1
26 | COC(=O)N1c2ccc3c(nc(C(O)c4c(OC)ccc(F)c4F)n3C3CCCC(C(=O)O)C3)c2CC[C@@H]1C (stereo partly drawn) [Example 428] |  | 0.1 to 1
27 | COC(=O)N1c2ccc3c(nc(C(O)c4cc(F)cc(OC)c4)n3C3CCCC(C(=O)O)C3)c2CC[C@@H]1C (stereo partly drawn) [Example 417] |  | 0.1 to 1
